Experimental data as given in PubChem BioAssay AID902 (National Center for Advancing Translational Sciences (NCATS), 2007).
The whole screen tested about 130,000 compounds, of which about 1,900 (1.5%) were called active. These results got no clear call from the source, so the numbers are uncertain. Calls follow the shape of the dose curve; as a rule, active = well fitted cell-killing curve with a large enough effect; inconclusive = small, poorly fitted or top-dose-only effect; inactive = no such curve, though single readings can be large or run the other way.

Assay: qHTS Screen for Compounds that Selectively Target Cancer Cells with p53 Mutations: Cytotoxicity of p53ts Cells at the Nonpermissive Temperature; also: nearly all actives have a fitted effect of over 55% in size
Conditions: H1299-p53A138V viability at 39C, ATP luminescence, 24 h
Potency is read from the fitted curve at half-maximal effect.

Row | Structure (SMILES) | Potency
1 | Cc1c2non([O-])c-2c(C)[n+](=O)[n+]1[O-] | inconclusive: 31.6 µM
2 | CN(C(=O)Cc1ccccc1)[C@@H]1CC[C@@]2(CCCO2)C[C@H]1N1CCCC1 | inconclusive: 20 µM
3 | CN(N=O)C(=N)N[N+](=O)[O-] | inconclusive: 31.6 µM
4 | O=P(Nc1nccs1)(c1ccccc1)c1nc2ccccc2s1 (centres undefined) | inconclusive: 31.6 µM
